Reference: patent US20210238271A1 (Janssen / Centocor, published 2021)

Sequences of proteins named here, by UniProt entry; tags and fusion partners are left off. Residues count along the entry.
UniProt P01375, 77-233 limits assumed: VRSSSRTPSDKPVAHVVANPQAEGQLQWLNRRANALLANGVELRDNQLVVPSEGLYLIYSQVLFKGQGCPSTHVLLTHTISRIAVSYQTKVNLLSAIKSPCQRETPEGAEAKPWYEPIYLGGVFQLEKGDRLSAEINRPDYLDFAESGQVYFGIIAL

Target: T1, recombinant human TNFα (human, UniProt P01375 77-233, 125I label in the receptor-blocking assay only)
T1 construct: also called huTNFα; tumor necrosis factor alpha
Assay: competition: 125I-TNFα (5 ng/ml) preincubated with anti-IL-18 control supernatant spiked with cA2, then bound to plate-coated p55-sf2, gamma counting; blocked partner p55-sf2

IC50 (read off the curve): ~10 ng/mL
B1: chimeric antibody cA2 (antibody, V domains shown)
VH: EVKLEESGGGLVQPGGSMKLSCVASGFIFSNHWMNWVRQSPEKGLEWVAEIRSKSINSATHYAESVKGRFTISRDDSKSAVYLQMTDLRTEDTGVYYCSRNYYGSTYDYWGQGTTLTVS
VL: DILLTQSPAILSVSPGERVSFSCRASQFVGSSIHWYQQRTNGSPRLLIKYASESMSGIPSRFSGSGSGTDFTLSINTVESEDIADYYCQQSHSWPFTFGSGTNLEVK
